Data from paper PMC4033665 (Journal of Medicinal Chemistry, 2014).

Chains of the proteins cited; added tags and fusions are not shown. Residues count along the entry.
UniProt Q07820, 171-327: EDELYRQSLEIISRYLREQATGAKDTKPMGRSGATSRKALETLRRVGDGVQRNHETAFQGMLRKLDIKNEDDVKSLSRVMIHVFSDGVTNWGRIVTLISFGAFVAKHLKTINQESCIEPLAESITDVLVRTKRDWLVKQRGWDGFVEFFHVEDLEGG

Biological target: human Mcl-1 (Homo sapiens, UniProt Q07820)
Assay type: binding

## O=C(O)CSc1cc(NS(=O)(=O)c2ccc(Oc3ccccc3)cc2)c2ccccc2c1O [Compound 21, 2-((1-Hydroxy-4-(4-phenoxyphenylsulfonamido)naphthalen-2-yl)thio)acetic Acid]
  binding efficiency index (BEI), ratio between pKi and molecular weight: 14.0

## O=C(O)CSc1cc(NC(=O)Cc2ccc(Cl)cc2)c2ccccc2c1O [Compound 28, 2-((4-(2-(4-Chlorophenyl)acetamido)-1-hydroxynaphthalen-2-yl)thio)acetic Acid]
  decreased potency (FP) relative to 26: 2 fold
